Laboratory results as given in patent US20200368361A1.

Sequences of proteins named here, by UniProt entry; tags and fusion partners are left off. A change or cut given only in a name is not applied to a line headed by its entry.
UniProt P21757: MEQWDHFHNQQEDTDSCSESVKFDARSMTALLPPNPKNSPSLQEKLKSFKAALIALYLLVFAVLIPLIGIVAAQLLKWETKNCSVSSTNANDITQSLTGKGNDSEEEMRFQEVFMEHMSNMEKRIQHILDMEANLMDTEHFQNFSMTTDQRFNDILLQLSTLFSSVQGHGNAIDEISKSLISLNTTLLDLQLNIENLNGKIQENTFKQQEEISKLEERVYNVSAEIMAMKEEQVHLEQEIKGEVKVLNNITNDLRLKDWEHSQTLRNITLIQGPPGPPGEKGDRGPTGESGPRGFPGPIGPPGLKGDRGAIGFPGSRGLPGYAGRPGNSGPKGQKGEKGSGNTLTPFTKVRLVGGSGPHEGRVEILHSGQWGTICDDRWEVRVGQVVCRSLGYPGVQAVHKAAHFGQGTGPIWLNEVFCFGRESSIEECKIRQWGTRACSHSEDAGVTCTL

Columns and labels:
[1] = target: endogenously expressed human MSR1 on PMA-treated THP-1 cells (human) (UniProt P21757); experiment: ECL cell binding, PMA-treated THP-1
[2] = target: human MSR1 endogenously expressed on PMA-differentiated THP-1 cells (human) (UniProt P21757); experiment: imaging of PMA-differentiated THP-1 cells, 10 ug/mL antibody, Alexa 488 secondary

- binding signal ratio to isotype control (11 nM) [1]: 54 fold
- Total Binding at 4° C. [2]: 5.83e+06 RFU
- Total Binding at 37° C. [2]: 8e+06 RFU
B1: H1H27751P-N297Q (antibody, human IgG1, V domains shown)
VH: EVQLVESGGGLVQPGGSLRLSCAASGFTFSNYAMHWVRQAPGKGLEYVSAISSNGGSTYYADSVKGRITISRDNSKNTLYLQMGSLRAEDMAVYYCARGRPYYYYFGMDVWGQGTTVTVSS
VL: DIVMTQTPVSSPVTLGQPASISCRSSQSLVHSDGNTYLSWFQQRPGQPPRLLIYKISNRFSGVPDRFSGSGAGTDFTLKISRVEAEDVGVYYCMQATQFPLNFGGGTKVEIKR
